Experimental data: ChEMBL document CHEMBL1149309, “Potent, selective and low-calcemic inhibitors of CYP24 hydroxylase: 24-sulfoximine analogues of the hormone 1alpha,25-dihydroxyvitamin D(3)” (J Med Chem, 2004)

Target: T1, Sterol 26-hydroxylase, mitochondrial (Homo sapiens, UniProt Q02318)
T1 sequence (Q02318 whole entry): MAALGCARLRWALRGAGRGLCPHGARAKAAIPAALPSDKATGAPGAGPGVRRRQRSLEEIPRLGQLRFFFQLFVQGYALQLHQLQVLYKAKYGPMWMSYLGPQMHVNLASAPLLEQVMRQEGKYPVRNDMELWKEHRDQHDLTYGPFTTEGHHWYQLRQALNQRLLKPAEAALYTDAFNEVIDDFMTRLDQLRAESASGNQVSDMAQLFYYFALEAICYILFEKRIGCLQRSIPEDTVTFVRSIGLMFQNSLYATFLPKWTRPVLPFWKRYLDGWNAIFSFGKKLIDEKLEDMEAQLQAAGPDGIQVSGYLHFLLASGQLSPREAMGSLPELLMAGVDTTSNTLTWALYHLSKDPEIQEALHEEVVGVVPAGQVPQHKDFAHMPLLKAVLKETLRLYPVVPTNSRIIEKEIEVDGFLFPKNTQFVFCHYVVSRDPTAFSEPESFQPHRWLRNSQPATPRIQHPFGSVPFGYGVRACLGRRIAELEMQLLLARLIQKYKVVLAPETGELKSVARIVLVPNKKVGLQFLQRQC
Assay: Inhibition of human CYP27A1 hydroxylase expressed in V79 cells
Assay type: cell-based

Question: For `C=C1/C(=C\C=C2/CCC[C@]3(C)[C@@H]([C@H](C)CCS(=N)(=O)c4ccccc4)CC[C@@H]23)C[C@@H](O)C[C@@H]1O` (stereo in doubt; 3a), which IC50 is on record?
Answer: Its IC50 is greater than 1000 nM.
